## Ab-14 light chain CDR variants: yeast mating affinities

Reference: Li et al. 2023, doi:10.1038/s41467-023-39022-2. File: FLAb, binding data.

Binding partner: SARS-CoV-2 spike HR2 peptide, sequence PDVDLGDISGINAS.

Parent: Ab-14, a human scFv built as VH, the linker GGGGSGGGGSGGGGS, VL. Only the CDRs of the light chain vary.
VH: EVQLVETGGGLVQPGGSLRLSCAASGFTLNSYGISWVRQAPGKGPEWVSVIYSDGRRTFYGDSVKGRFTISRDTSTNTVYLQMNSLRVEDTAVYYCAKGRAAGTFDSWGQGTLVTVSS
VL: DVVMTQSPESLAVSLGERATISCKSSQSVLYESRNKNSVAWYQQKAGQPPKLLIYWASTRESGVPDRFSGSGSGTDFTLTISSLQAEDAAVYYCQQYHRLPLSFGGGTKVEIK

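The starting antibody came from a phage panning campaign against this peptide. These sequences belong to a second round, designed from the earlier measurements on random variants of the parent. Several design methods are mixed in this list. The scFvs were displayed on barcoded MATa yeast, the peptide on MATalpha yeast. The frequency of each diploid, read from paired DNA barcodes, reflects how well the two displayed proteins bind. Read counts were normalised to the haploid input and turned into Kd by a linear fit to BCL2-family pairs of known affinity, for each replicate. Each pool was mated in six replicate cultures.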

Variants are written as CDR1, CDR2 and CDR3 of the light chain (limits as in the source). Parent: KSSQSVLYESRNKNSVA, WASTRES, QQYHRLPLS.
Variants here have at most six changes.
Each Kd is an estimate from the mating assay, the geometric mean of the replicates in which the pair was seen; lower is stronger.
Where no diploid with the target was found in any replicate, the entry reads "no signal": below detection, most likely a poor binder, though not proof of it.

CDR-L1,CDR-L2,CDR-L3,Kd,seen in
KSSQSRLYESRNKNSVA,GASTRES,QQYHRLPLS,1.4 nM,6 of 6
KSSMSYLYESRNTNSVA,EASTRES,QQYHRLPLS,2.9 nM,6 of 6
KVSQSVLYEDGTKNSVA,NASSRES,QQYHRLPLS,1.3 nM,6 of 6
KLSQSVLMESRNKNSVA,DASLRES,QQYHRLPLS,480 pM,6 of 6
KMSQSVWYEQRNKNSVA,NGSTRFS,QQYHRLPLS,1.8 nM,6 of 6
KSSQSVLYECRNKYSVA,WALTRES,QQYDRLPLS,no signal,0 of 6
KISQSVEYESFNKNSVA,WASTRES,QQYHRLPLS,23 nM,6 of 6
KLQQSMLYESRNKNSVA,DASQRES,QQYHRLPLS,360 pM,6 of 6
KMSQSVLYESRNKNSVA,MASTRES,QQYHRLPLS,1.5 nM,6 of 6
KLSQSDLYESRNKNNVA,DASQRES,QQYHRLPLS,420 pM,6 of 6
KQSQSVLYESRNKNAVA,DASTRES,QWYHWLPLS,23 nM,6 of 6
HQSISVLYESRNKNSVA,NGSTREV,QQYHRLPLS,1.6 nM,6 of 6
KVSQSDLYESRNKNSVA,HASTREQ,QQYHRLPLS,730 pM,6 of 6
KLEQSVLYESRNKNSVA,NASQRES,QQYHRLPLS,940 pM,6 of 6
KSSQSVIYESRNKNSVA,QASTRES,QQYHRLPLS,3.2 nM,6 of 6
NSSQSWLYESRNKNSVA,SGNTREQ,QQYHRLPLS,1.3 nM,6 of 6
KLSQSEGYESRNKNSVA,NASQREE,QQYHRLPLS,380 pM,6 of 6
KLPQSVLYESRNKNSVA,QASTRMS,QQYHRLPLS,900 pM,6 of 6
KSSQSVLYESRNKHSVA,WASTRES,QQYNRLPLS,79 nM,5 of 6
KCSQSVLYESTNANSVA,WASTRES,QQYHVLPLS,24 nM,1 of 6
KLSQSELYESRNCNSVA,NASQRES,QQYHRLPLS,3.0 nM,6 of 6
KSSQSVLYESFNKNSVA,WASTRES,QQYQRLPLS,23 nM,6 of 6
KLDQSTLYESRNKNSVA,WASTRES,QQYHRLPLS,1.4 nM,6 of 6
KSYISDLYESRNKNSVA,EASTRES,QQYHRLPLS,540 pM,6 of 6
KSSQSVLYEGRNKNSVA,EASTRES,QQYHRLPLS,1.9 nM,6 of 6
KLSPEVQYESRNKNSVA,GASERES,QQYHRLPLS,600 pM,6 of 6
KSSQSYLYESGNKNSVA,EASTRES,QQYHRLPLS,9.3 nM,6 of 6
KSSQSVLYEFRNKNSVA,WASTRES,QQYHRLPLS,6.0 nM,5 of 6
KMSQSVLYESRNKNPVA,WASTRES,QQYSRLPLS,4.9 nM,6 of 6
KVSQSVLYESRNKNSVA,DASTRCS,QQYHRLPLS,4.0 nM,6 of 6
KLSQSWLYDSRNKNSVA,NASTRES,QQYHRLPLS,480 pM,6 of 6
KSPQSVLYESRNKNSVA,YASTRES,QQYHRLPLS,21 nM,6 of 6
KSSQSVLYESRNKNSVA,DASTRES,QQGHRLPLS,270 nM,1 of 6
KSSQSVLYDSRNKNSVA,WASTRES,QQYQRLPLS,12 nM,6 of 6
KSSGSVLYESRNKNSVA,NASMRES,QQYHRLLLS,9.1 nM,6 of 6
KDSQSVLYESRNKNGVA,WASTRES,QQYHRLPLS,no signal,0 of 6
KSSQSFLYESRNKNSVA,EASTRES,QAYHRLPLS,22 nM,6 of 6
KQSQSVLYEERNKNSVA,DASTRES,QQYHRLPLS,700 pM,6 of 6
KLSQQVLYESRNKNSVA,EASTRES,QQYHRLPLS,430 pM,6 of 6
KLSQSVDYESRNKNNVA,DASTRES,QQYHRLPLS,2.4 nM,6 of 6
KLSGSWLYESRNKNSVA,NASTRES,QQYHRLPLS,1.9 nM,6 of 6
KSSQTVLYESRNKNSVA,SASTRES,QQYHRLPLE,7.1 nM,5 of 6
KSSQSVLYESRAKNSVA,WASTRES,QQYHRLDLS,170 nM,2 of 6
KFSQSVLYESRNKNSVA,SASTRES,QQYHRLPLS,1.0 nM,6 of 6
GFSQSVLYESRNNNSVA,WASTRES,QQYHRLPLS,no signal,0 of 6
KSSQQVLYETSNKNSVA,EASTRES,QQYHRLPLS,2.1 nM,6 of 6
KSSVSVDFESRNKNSVA,GASTCES,QQYHRLPLS,3.4 nM,6 of 6
KSSQSVLYEDENKNSVA,WASTRES,QQYHDLPLS,270 nM,3 of 6
KSSQLVLYESRNKNSVA,DGSTRES,QQYHRLPLS,1.3 nM,6 of 6
QSSQSVLLESRLKNSVA,MASTRES,QQYHRLPLS,640 nM,3 of 6
KLSQSELYEERNKNSVA,NASTRLS,QQYHRLPLS,800 pM,6 of 6
KSSQSVFYEGMNKNSVA,KASTRES,QQYHRLPLS,2.5 nM,6 of 6
KESQSWWYESRNKNSVA,GASTRES,QQYHRLPLM,7.6 nM,6 of 6
KLSQSDLYESRMKNSVA,NASTREQ,QQYHRLPLS,830 pM,6 of 6
KFSQSVAYESRTKNSVA,NASTREA,QQYHRLPLS,1.8 nM,6 of 6
KFSQKVLYEGRNKNSVA,NASTRES,QQYHRLPLS,1.8 nM,6 of 6
FSLQSVLMESRNFNSVA,HASTRED,QQYHRLPLS,130 nM,4 of 6
KLQQSWLYESRNKNSVA,HASTRLS,QQYHRLPLS,6.5 nM,6 of 6
KSSFSYLEESRNKNSVA,EASTRES,QQYHRLPLS,1.5 nM,6 of 6
KSSESVWYESRSKNSVA,WASTRES,QQYHRLPLS,170 nM,2 of 6
KSSQSQLYESYNKNSVA,WASTRES,QAYHRLPLS,64 nM,1 of 6

Excerpt, the final 8 entries:

CDR-L1	CDR-L2	CDR-L3	Kd	seen in
KLSQSDLYESRMKNSVA	NASTREQ	QQYHRLPLS	830 pM	6 of 6
KFSQSVAYESRTKNSVA	NASTREA	QQYHRLPLS	1.8 nM	6 of 6
KFSQKVLYEGRNKNSVA	NASTRES	QQYHRLPLS	1.8 nM	6 of 6
FSLQSVLMESRNFNSVA	HASTRED	QQYHRLPLS	130 nM	4 of 6
KLQQSWLYESRNKNSVA	HASTRLS	QQYHRLPLS	6.5 nM	6 of 6
KSSFSYLEESRNKNSVA	EASTRES	QQYHRLPLS	1.5 nM	6 of 6
KSSESVWYESRSKNSVA	WASTRES	QQYHRLPLS	170 nM	2 of 6
KSSQSQLYESYNKNSVA	WASTRES	QAYHRLPLS	64 nM	1 of 6

Three control strains display no target. For all light chain designs, 4% of the pairings with them gave a signal, with a median of 430 nM and one signal in twenty below 38 nM, so weak values seen in few replicates may be background.
A sequence measured in both rounds can read differently, since the two assays cover different ranges.
In the paper, a design with two or fewer of six values counts as a poor binder.
Of ten entries with the parent sequence, four were seen in most replicates (averages 2.2 nM to 240 nM), three in one and three in none, so single entries are noisy.